Test results taken from patent US6376521B1, “A3 adenosine receptor antagonists” (The United States of America as represented by the …, priority 1998, dated 2002).

By UniProt entry, the sequences of proteins in these tests, tags left out. Where a name states a change or a piece, a line headed by the entry shows the natural chain unless it says otherwise.
UniProt P30543, whole entry: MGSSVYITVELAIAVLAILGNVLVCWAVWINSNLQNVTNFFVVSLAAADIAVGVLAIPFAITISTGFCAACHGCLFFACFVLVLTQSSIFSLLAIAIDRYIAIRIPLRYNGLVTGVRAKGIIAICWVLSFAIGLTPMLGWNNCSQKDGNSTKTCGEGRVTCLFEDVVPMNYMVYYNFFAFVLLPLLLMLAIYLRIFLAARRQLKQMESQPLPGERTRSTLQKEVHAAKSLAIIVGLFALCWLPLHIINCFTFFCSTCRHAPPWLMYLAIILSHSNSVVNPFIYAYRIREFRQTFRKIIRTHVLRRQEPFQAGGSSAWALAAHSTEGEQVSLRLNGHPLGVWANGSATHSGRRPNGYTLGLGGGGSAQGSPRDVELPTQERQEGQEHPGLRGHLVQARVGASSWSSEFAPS

Target: A2A adenosine receptors (Rattus norvegicus, UniProt P30543)
Assay: Displacement of specific [3H]CGS 21680 binding in rat striatal membranes
Details: Table 2; at 10^−4 M

## CCCOC(=O)c1c(-c2ccccc2)nc(CC)c(C(=O)SCC2COC(C)(C)O2)c1CCC (racemic)
  rA2A displacement of specific binding (class d): d (10^−4) (Displacement of <10% of specific binding at the indicated concentration (M).)
